Laboratory results from US20230113398A1, “INEXPENSIVE METAL-FREE ORGANIC REDOX FLOW BATTERY (ORBAT) FOR GRID-SCALE STORAGE” (UNIVERSITY OF SOUTHERN CALIFORNIA, priority 2013, published 2023).

Assay: Solubility
Conditions: Table 7

Maleic hydrazide
Solubility: 100 mM
